Paper PMC6240065 (Scientific Reports, 2018)

Target: T1, VcFRK (Vibrio cholerae fructokinase) (Vibrio cholerae, UniProt A0A0H3AER7)
T1 construct: gene cscK

OCC1(O)OC[C@@H](O)[C@@H](O)[C@@H]1O (stereo partly drawn) [FRU, D-fructose]
pKd: 2.86

pKd: −log10 of the molar value.
